Results taken from IntAct's records for PubMed 20880835.

B1: Eukaryotic translation initiation factor 4E-binding protein 1 (Homo sapiens), Q13541 (parent)
chain: MSGGSSCSQTPSRAIPATRRVVLGDGVQLPPGDYSTTPGGTLFSTTPGGTRIIYDRKFLMECRNSPVTKTPPRDLPTIPGVTSPSSDEPPMEASQSHLRNSPEDKRAGGEESQFEMDI

Variants of: B1
Details: with if4e_human EIF4E

Variant | effect of a mutation on the interaction
M60T | decreasing interaction strength
M60A | decreasing interaction strength
E61K | decreasing interaction
R63Q | decreasing interaction
K57E | decreasing interaction

Continued, values first:

effect of a mutation on the interaction | Variant
decreasing interaction | N64S
decreasing interaction strength | M60E
decreasing interaction | K57E;E61G
decreasing interaction | D55S
